Data as given in ChEMBL document CHEMBL5715961 (Cell Chem Biol, 2021).

Tests used:
Homo sapiens [1] = organism: Homo sapiens; test: Binding affinity to human recombinant FAK P410G mutant (amino acids 410-689) expressed in Escherichia coli, BL21 (DE3) assessed as dissociation rate constant by SPR assay
Homo sapiens [2] = organism: Homo sapiens; test: Binding affinity to human recombinant FAK P410G mutant (amino acids 410-689) expressed in Escherichia coli, BL21 (DE3) assessed as association rate constant by SPR assay

SMILES | K (Homo sapiens [1]) | K (Homo sapiens [2])
O=C1Cc2cc(Nc3ncc(C(F)(F)F)c(CCc4ccccc4)n3)ccc2N1 | 4.8 10^-2/s | 1.8 10^5/M/s
O=C1Cc2cc(Nc3ncc(C(F)(F)F)c(CCc4ccc(F)cc4)n3)ccc2N1 | 14 10^-2/s | 1.4 10^5/M/s
